Values quoted from earlier work in patent US10357501B2, “Treating conditions associated with increased eotaxin with 25-hydroxyvitamin D3” (DSM IP ASSETS B.V., priority 2010, dated 2019).

Details: cited from earlier work

## Vitamin D
Hathcock et al. 2007, 10'000 IU
  safe upper level: at least 250 μg/day
For several months, RDA 5-15 μg or 200-600 IU
  chronic intake at which toxicity can occur: more than 100 times the recommended daily allowance
